The text below walks through data of US12637461B2, “Compounds for the activation of AMPK” (PFIZER INC., priority 2022, dated 2026).

Sequences of proteins named here, by UniProt entry; tags and fusion partners are left off.
UniProt O43741, whole entry: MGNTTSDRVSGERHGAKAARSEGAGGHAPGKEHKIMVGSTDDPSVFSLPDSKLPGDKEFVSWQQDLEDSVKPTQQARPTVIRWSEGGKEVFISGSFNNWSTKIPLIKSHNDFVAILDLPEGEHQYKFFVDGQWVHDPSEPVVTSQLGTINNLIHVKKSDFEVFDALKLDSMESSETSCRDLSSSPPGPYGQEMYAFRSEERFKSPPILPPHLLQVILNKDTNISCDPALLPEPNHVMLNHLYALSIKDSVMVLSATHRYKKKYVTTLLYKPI
UniProt P54646, whole entry: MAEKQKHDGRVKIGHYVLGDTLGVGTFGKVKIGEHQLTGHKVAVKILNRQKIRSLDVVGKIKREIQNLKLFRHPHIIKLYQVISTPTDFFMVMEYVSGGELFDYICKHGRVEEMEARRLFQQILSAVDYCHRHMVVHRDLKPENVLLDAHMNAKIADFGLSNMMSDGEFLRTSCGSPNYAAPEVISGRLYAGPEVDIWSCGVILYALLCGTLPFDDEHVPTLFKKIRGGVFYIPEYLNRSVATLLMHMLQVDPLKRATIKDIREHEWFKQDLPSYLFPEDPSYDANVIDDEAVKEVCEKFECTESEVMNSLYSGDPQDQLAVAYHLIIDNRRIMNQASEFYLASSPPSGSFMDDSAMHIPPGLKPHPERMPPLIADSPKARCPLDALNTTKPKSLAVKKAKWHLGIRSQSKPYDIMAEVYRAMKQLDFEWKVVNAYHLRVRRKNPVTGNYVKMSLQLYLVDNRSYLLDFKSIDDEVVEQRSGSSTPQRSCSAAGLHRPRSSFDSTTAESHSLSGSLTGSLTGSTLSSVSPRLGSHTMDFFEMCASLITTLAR
UniProt Q9UGI9, whole entry: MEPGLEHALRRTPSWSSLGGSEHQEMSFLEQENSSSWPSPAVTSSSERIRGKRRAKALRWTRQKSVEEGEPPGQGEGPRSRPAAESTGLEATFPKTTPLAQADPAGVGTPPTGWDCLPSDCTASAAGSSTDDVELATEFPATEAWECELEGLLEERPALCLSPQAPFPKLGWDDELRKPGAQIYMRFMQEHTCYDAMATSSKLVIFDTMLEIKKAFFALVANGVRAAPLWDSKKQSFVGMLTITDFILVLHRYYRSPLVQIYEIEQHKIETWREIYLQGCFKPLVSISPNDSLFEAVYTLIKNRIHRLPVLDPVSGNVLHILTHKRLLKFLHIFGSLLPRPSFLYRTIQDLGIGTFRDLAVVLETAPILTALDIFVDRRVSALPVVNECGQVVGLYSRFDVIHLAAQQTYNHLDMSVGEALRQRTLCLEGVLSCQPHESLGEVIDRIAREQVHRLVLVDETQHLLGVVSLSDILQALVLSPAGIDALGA

For the test, the target named is human AMPK α2β2γ3 (Homo sapiens, UniProt O43741+P54646+Q9UGI9). Kind of test: Primary cellular assay: γ3 associated phospho-Thr172 AMPK detection (custom pAMPK Surefire AlphaLISA) in α2β2γ3 bulk transiently transfected HEK293 cells. The format is cell-based. Particulars: activation of human AMPK α2β2γ3 (γ3 pThr172 AMPK signal) in transiently transfected HEK293 cells, 20 minutes compound incubation; for Assay GMean Asy. Max (%): geometric mean of the asymptotic max; for EC50: read-out: Assay GMean EC50, geometric mean EC50. For orientation: Alpha assays give light when donor and acceptor beads are brought close together.

As a reminder, the EC50 is the midpoint of the concentration-response curve.

Regarding `CC1CC1(O)C(=O)N1CC(Nc2ncc3c(n2)C(C)(c2cccc(Cl)c2F)CN(c2ncccc2F)C3=O)C1` (single isomer, unassigned) [83], the “Assay GMean Asy. Max (%)” value is listed as 152% and the EC50 stood at 82.8 nM.

As for `CC1CC1(O)C(=O)N1CC(Nc2ncc3c(n2)C(C)(c2cccc(Cl)c2F)CN(c2ncccc2F)C3=O)C1` (single isomer, unassigned) [84], the “Assay GMean Asy. Max (%)” value is given as 184% and the EC50 was 72.4 nM.
